Literature values as cited in article PMC7573825, “Population Pharmacokinetics of Vancomycin in Kidney Transplant Recipients: Model Building and Parameter Optimization” (Frontiers in Pharmacology, 2020).

Set-up: method as in 3 sources, one per row (each row's own in cited_ref): ref Adane et al., 2015; Lin et al., 2016 ||| ref Ji et al., 2018 ||| ref Lin et al., 2019
Conditions: second of two other studies, typical creatinine clearance rate nearly 60 ml/min; ref Lin et al., 2019; cited from earlier work

CN[C@H](CC(C)C)C(=O)N[C@H]1C(=O)N[C@@H](CC(N)=O)C(=O)N[C@H]2C(=O)N[C@H]3C(=O)N[C@H](C(=O)N[C@H](C(=O)O)c4cc(O)cc(O)c4-c4cc3ccc4O)[C@H](O)c3ccc(c(Cl)c3)Oc3cc2cc(c3O[C@@H]2O[C@H](CO)[C@@H](O)[C@H](O)[C@H]2O[C@H]2C[C@](C)(N)[C@H](O)[C@H](C)O2)Oc2ccc(cc2Cl)[C@H]1O [vancomycin]
typical value of drug clearance: 2.45 L/h
